Molecules are shown by their SMILES.

The nature of this experiment: Selectivity ratio of Ki for full length recombinant human PDE4B1 to Ki for full length Trypanosoma brucei PDEB1.
As for `COc1ccc(C2=NN(C3CCCCCC3)C(=O)[C@H]3CC=CC[C@@H]23)cc1-c1ccc(C(=O)NCC(N)=O)cc1`, the Ratio Ki amounted to 13.

As for `COc1ccc(C2=NN(C3CCCCCC3)C(=O)[C@@H]3CC=CC[C@H]23)cc1-c1ccc(C(=O)NCC(N)=O)cc1`, the Ratio Ki stood at 16.

On to `COc1ccc(C2=NN(C(C)C)C(=O)[C@@H]3CC=CC[C@H]23)cc1-c1ccc(C(=O)NCC(N)=O)cc1` (relative stereo), for which the Ratio Ki was found to be 19.

For `COc1ccc(C2=NN(C3CCCCCC3)C(=O)[C@@H]3CC=CC[C@H]23)cc1-c1ccc(C(=O)NCC(N)=O)cc1` (relative stereo), the Ratio Ki stood at 10.
